Values quoted from earlier work as cited in patent US20040248869A1, “Method for finding novel active ingredients having androgen-type properties” (priority 2001, published 2004).

Test system: human skin cells
Conditions: differentiation of human skin cells; cited from earlier work

For `C[C@]12CC[C@H]3[C@@H](CCC4=CC(=O)CC[C@@]43C)[C@@H]1CC[C@@H]2O` [T, testosterone], the “volume of the epidermis tissue, cell size, number of keratin filaments” value is listed as “does not influence”.
